Molecular target: transgenic TCR specific for A*02:01/pp65495-503, on transduced PBMCs
Test: cell-based or functional assay

A2/pp65495-503 pMHC functionalized with MMAF (toxin armed Tub-tagged Streptamer) (from UniProt P61769 21-119; P06725 495-503) (peptide-MHC)
Ag-specific CD8 T cell population after 5d culture with 0.25 ug pMHC: 15.2%
Ag-specific CD8 T cell population after 5d culture with 0.5 ug pMHC: 4.9%

Reference: patent publication US20210246189A1
